Test results from PubChem BioAssay AID1224905 (ICCB-Longwood Screening Facility, Harvard Medical School, 2016).
The campaign covered roughly 210,000 compounds. About 880 (0.42%) were called active.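 How the source made its calls: active means replicate mean at 85% of control or lower with very high polarization wells dropped (limit read from the data); inactive means the rest.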 Shown is part of a subset that was picked to be rich in actives.

Sequences of proteins named here, by UniProt entry; tags and fusion partners are left off.
UniProt P08753, whole entry, looked up: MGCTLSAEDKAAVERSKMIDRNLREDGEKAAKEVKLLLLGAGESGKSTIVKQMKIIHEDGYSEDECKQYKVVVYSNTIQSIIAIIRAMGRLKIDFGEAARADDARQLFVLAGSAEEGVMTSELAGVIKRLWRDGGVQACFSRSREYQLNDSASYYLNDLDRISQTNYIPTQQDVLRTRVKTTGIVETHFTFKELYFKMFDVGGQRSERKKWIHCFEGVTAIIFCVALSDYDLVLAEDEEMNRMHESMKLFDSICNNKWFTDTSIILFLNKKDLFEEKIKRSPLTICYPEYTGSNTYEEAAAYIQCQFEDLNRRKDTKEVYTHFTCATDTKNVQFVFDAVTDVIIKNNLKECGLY

biological target: Guanine nucleotide-binding protein G(i) subunit alpha-3 (Rattus norvegicus) (UniProt P08753); assay: disruptors of GIV-Galphai3 protein-protein interaction – biochemical, fluorescence polarization, FITC-GIV GBA peptide, rat Galphai3, primary screen (AID 1224905); details: Galpha-i3/FITC-GIV peptide fluorescence polarization, 90 min; stronger effect = lower value; scaled: aluminum fluoride 0%, vehicle 100%

Row | Compound | percent of control (FP)
1 | CN(C)/C=C/c1nc(C(F)(F)F)c(C#N)s1 | 20.7% (active)
2 | O=C(Nc1ccc(-c2nc3ccccc3o2)cc1)C1COc2ccccc2O1 (centres undefined) | 140% (inactive)
3 | Cc1nc2ccc(S(=O)(=O)NCC(=O)Nc3nccs3)cc2s1 | 103% (inactive)
4 | O=C(CSc1ncnc2ccccc12)Nc1nc2ccccc2s1 | 102% (inactive)
5 | CCS(=O)(=O)N1CCC2(CC1)Nc1ccc(Cl)cc1-n1cccc12 | 105% (inactive)
6 | CC(C)c1cc(C2CCCN2Cc2ccc(Br)cc2)no1 (centres undefined) | 102% (inactive)
7 | CC(=O)Oc1ccc(OC(C)=O)c2c1C1C=CC2CC1 | 101% (inactive)
8 | CC(=O)Oc1cccc2c1C(=O)C=CC2=O | 77.8% (active)
9 | CC(=O)Oc1ccccc1C(=O)N1CCN(c2ccccc2F)CC1 | 101% (inactive)
10 | CCc1cc(C2CCCN2C(=O)NCC2CCCO2)on1 (centres undefined) | 106% (inactive)
11 | O=C(NCc1ccccc1Cl)c1ccc2nc(N3CCOCC3)sc2c1 | 104% (inactive)
12 | CCOC(=O)C1(C)/C(=N\Nc2ccc(Br)cc2)C(=O)C(=O)N1c1ccccc1 (centres undefined) | 101% (inactive)
13 | CC(=O)N1CCc2cc(N3CC(C(=O)N4CCC5(CC4)OCCO5)CC3=O)ccc21 (centres undefined) | 107% (inactive)
14 | CCC(=O)N1CCc2cc(N3CC(C(=O)N4CCN(C(C)C)CC4)CC3=O)ccc21 (centres undefined) | 72.7% (active)
15 | CCC(NC(=O)C1CC(=O)N(c2ccc3c(c2)CCN3C(C)=O)C1)c1cccs1 (centres undefined) | 102% (inactive)
16 | CCSCCOC(=O)C1=C(C)NC2=C(C(=O)CC(c3ccccc3)C2)C1c1ccc(OC)cc1OC (centres undefined) | 105% (inactive)
17 | Cc1cc(Nc2cccc(C(F)(F)F)c2)nc2ccc(NC(=O)CSc3ccncc3)cc12 | 102% (inactive)
18 | COc1ccc(N=C2NC(=O)/C(=C\c3ccc(OCC(C)C)cc3)S2)cc1 | 107% (inactive)
19 | Cc1cc2c(cc3n2CC(C)(C(=O)NC2CCCCC2)N(Cc2ccc(F)cc2)C3=O)o1 (centres undefined) | 102% (inactive)
20 | CCn1c(C)nc2c1C(=O)c1ccccc1C2=O | 102% (inactive)
21 | Cc1cc2c3c(ccc(N)c3n1)C(=O)c1ccccc1-2 | -32.2% (active)
22 | Nc1nnc2c(n1)-c1ccccc1C2=O | 100% (inactive)
23 | S=C(Cc1ccc(CC(=S)N2CCOCC2)cc1)N1CCOCC1 | 105% (inactive)
24 | O=C(Nc1ccc(O)c(-c2nc3ccccc3s2)c1)c1cccc(N2C(=O)CCC2=O)c1 | 104% (inactive)

Row | Compound | percent of control (FP)
25 | CC1CCN(C(=O)CSc2nnc3c(n2)[nH]c2ccccc23)C(C)C1 (centres undefined) | 108% (inactive)
26 | O=C1/C(=C/c2ccc(-c3cc(Cl)ccc3Cl)o2)C=C(c2ccccc2)N1c1ccc(F)cc1 | 112% (inactive)
27 | CCOc1ccc(NC(=O)c2cn(C)c3c(c(C)nn3-c3ccc(F)cc3)c2=O)cc1 | 101% (inactive)
28 | CC(C)/C=N/NC(=O)c1ccccc1 | 101% (inactive)
29 | CC(=O)Nn1nc2c(n1)C(=NNC(=O)c1ccccc1)c1nn(NC(C)=O)nc1C2=NNC(=O)c1ccccc1 | 99.9% (inactive)
30 | O=C(NN=c1c(=O)c2ccccc2c1=O)c1ccncc1 | 76.9% (active)
31 | O=C(Nc1c(F)cc(F)cc1Br)c1cc(S(=O)(=O)N2CCN(c3ccccc3)CC2)ccc1F | 106% (inactive)
32 | Cc1ccc(S(=O)(=O)N2CSC[C@@H]2C(=O)NCc2csc(C)n2)cc1 | 105% (inactive)
33 | O=C(NCc1ccccn1)c1cc(-c2ccccc2O)no1 | 97.4% (inactive)
34 | CCn1c(=O)c(=O)n(CC(=O)NCCC2=CCCCC2)c2cccnc21 | 101% (inactive)
35 | N#CC(C#N)=C(C#N)/C=C/n1c2ccccc2c2ccccc21 | 69.8% (active)
36 | Cn1c(=O)c(C#N)c(O)c2ccccc21 | 103% (inactive)
37 | COc1ccc(Cl)cc1C(=O)Nc1cccc(-c2nc3cccnc3s2)c1 | 108% (inactive)
38 | COC(=O)C1C(=O)NC(SCC(=O)Nc2ccccc2C)=C(C#N)C1c1ccc(Cl)cc1Cl (centres undefined) | 104% (inactive)
39 | COc1cccc(C2=N/C(=C\c3ccccc3OC)C(=O)N2c2ccc(C)cc2)c1 | 94% (inactive)
40 | COc1cc(/C=C2/N=C(c3ccccc3)N(C)C2=O)cc(OC)c1OC | 106% (inactive)
41 | COc1cccc(C2=N/C(=C\c3ccccc3OC)C(=O)N2c2cccc(F)c2)c1 | 62.3% (active)
42 | COc1ccc(NC(=O)C2CCCN(c3nc4ncccc4n4cccc34)C2)cc1 (centres undefined) | 128% (inactive)
43 | CC1CCN(C(=O)Cn2nc(Cc3ccncc3)c3ccccc3c2=O)CC1 | 101% (inactive)
44 | Cn1cccc1/C=C1\C(=O)NC(=S)N(c2ccccc2)C1=O | 80.1% (active)
45 | O=C1NC(=O)N(c2ccccc2)C(=O)C1=Cc1c2ccccc2cc2ccccc12 | 101% (inactive)
46 | O=C1NC(=S)N(c2ccc(Br)cc2)C(=O)/C1=C/c1ccsc1 | 94.1% (inactive)
47 | Cc1ccc2c(c1)N(C(=O)CSc1nc3ccccc3o1)C(C)(C)c1ssc(=S)c1-2 | 101% (inactive)
48 | COc1ccc(CNC(=O)c2cnc(N(C)C)nc2C)cc1 | 99% (inactive)

Row | Compound | percent of control (FP)
49 | CCc1nn(CC(=O)NCc2ccc(OC)c(OC)c2)c(=O)c2cc3occc3n12 | 103% (inactive)
50 | O=C(NCCCN1CCOCC1)C1CCN(c2cncnc2N2CCCCC2)CC1 | 113% (inactive)
51 | CSc1ccc(C2C=C(c3cccs3)Nc3ncnn32)cc1 (centres undefined) | -22.3% (active)
52 | CC1=C(C(N)=O)C(c2ccc(Br)cc2)n2ncnc2N1 (centres undefined) | 111% (inactive)
53 | COc1cccc(C2=CC(c3cccc(OC)c3)n3ncnc3N2)c1 (centres undefined) | 96% (inactive)
54 | CC1=C(C(=O)Nc2ccccc2Cl)C(c2cccs2)n2ncnc2N1 (centres undefined) | 98% (inactive)
55 | CSc1ccc(C2C=C(c3ccc(Cl)s3)Nc3ncnn32)cc1 (centres undefined) | -22.3% (active)
56 | Cc1ccc(-n2nc3c(c2NC(=O)c2ccc(S(=O)(=O)N4CCCC4)cc2)CSC3)c(C)c1 | 102% (inactive)
57 | O=C(c1cc2c(s1)-c1ccsc1CC2)N1CCN(c2ccccn2)CC1 | 109% (inactive)
58 | COc1ccc2oc(-c3noc(-c4ccnn4C)n3)c(C)c2c1 | 106% (inactive)
59 | Cc1cc(C)n(CC(=O)NC2CCCC2)c(=O)c1S(=O)(=O)c1ccc(Cl)cc1 | 104% (inactive)
60 | CCN1CCN(C(=O)c2sc3nc(C)nc(N4CCN(c5ccccn5)CC4)c3c2C)CC1 | 104% (inactive)
61 | COCCNC(=O)c1ccc(Cn2c(SCC(=O)NCc3ccccc3)nc3ccc(Br)cc3c2=O)cc1 | 97.2% (inactive)
62 | CCOC(=O)c1ccc(-c2ccc(/C=C(\C#N)C(=O)Nc3ccc(OCC)cc3)o2)cc1 | 102% (inactive)
63 | CCOC(=O)c1ccc(-c2ccc(/C=C(\C#N)C(=O)Nc3ccc(C)cc3)o2)cc1 | 99.2% (inactive)
64 | N#C/C(=C\c1ccc(-c2ccccc2)o1)C(=O)Nc1ccccc1 | 36.5% (active)
65 | CCNC(=O)N1CCCC(c2nc(C(C)C)cs2)C1 (centres undefined) | 105% (inactive)
66 | O=C(CN1CCN(C(=O)c2cccc(Cl)c2)CC1)Nc1nnc(-c2ccccc2)s1 | 98.2% (inactive)
67 | CCOc1ccc(NC(=O)Cn2c(SCC)nc3ccccc32)cc1 | 98.2% (inactive)
68 | Cc1cc2nc3[nH]c4ccccc4c3nc2cc1C | 109% (inactive)
69 | O=c1[nH]c2c(c(=O)n1Cc1ccccc1)CCC2 | 110% (inactive)
70 | Cc1cc2nc3c(=O)n(Cc4ccccc4)c(=O)[nH]c3nc2cc1N | 72.2% (active)
71 | Cc1sc(NC(=O)c2ccccc2)c(C(Nc2ccccn2)c2cccnc2)c1C (centres undefined) | 102% (inactive)
72 | Fc1ccccc1CSc1nccn2nc(-c3ccc(Br)cc3)cc12 | 111% (inactive)

Row | Compound | percent of control (FP)
73 | Cc1ccc(C2(c3ccc(C)cc3)CC2C(=O)Nc2cccc(C(F)(F)F)c2)cc1 (centres undefined) | 104% (inactive)
74 | COc1ccccc1OCCCn1cc(/C=C2/C(=N)N3C=CSC3=NC2=O)c2ccccc21 | 103% (inactive)
75 | Cc1ccc(OCCn2cc(C(=O)c3ccccc3)c3ccccc32)cc1 | 99.6% (inactive)
76 | Cc1ccc(OCCn2cc(/C=C3/C(=O)Nc4cc(Cl)ccc43)c3ccccc32)cc1C | 35.2% (active)
77 | CCc1cc2c(NC3CCCCC3)ncnc2s1 | 117% (inactive)
78 | O=c1sc2ccccc2c2nc[nH]c12 | 99.7% (inactive)
79 | O=C(Cn1c2c(c(-c3ccccc3Cl)cc1=O)CCC2)NC1CCCCC1 | 108% (inactive)
80 | CNC(=O)CSc1nnc2[nH]c(=O)cc(C)n12 | 108% (inactive)
81 | Cc1c(Cc2ccccc2)c(N2CCCCC2)n2c(nc3ccccc32)c1C#N | 146% (inactive)
82 | N#Cc1c(N2CCCCCC2)ncc2cc3ccccc3nc12 | -18.1% (active)
83 | Cc1cc(N2CCN(c3ccccc3)CC2)n2c(nc3ccccc32)c1C#N | 99.6% (inactive)
84 | Cc1cc(C(=O)NCCN2CCOCC2)c2c(=O)n(C)c(=O)n(C)c2n1 | 105% (inactive)
85 | CC(=O)N[C@H]1[C@H](Oc2ccc(C)cc2)O[C@H](COC(C)=O)[C@@H](OC(C)=O)[C@@H]1OC(C)=O | 131% (inactive)
86 | CCOC(=O)CSc1ncn[nH]1 | 102% (inactive)
87 | CCn1nc(C)cc1-c1nnc(SCC(=O)c2ccc(C)cc2)o1 | 108% (inactive)
88 | CCN(CC)c1ccc2cc(C(=O)O)c(=O)oc2c1 | 115% (inactive)
89 | CCN(CC)c1ccc2oc(=O)c(C)nc2c1 | -40.7% (active)
90 | CCN(CC)c1ccc2cc(-c3csc(-c4nc(-c5cc6ccc(N(CC)CC)cc6oc5=O)cs4)n3)c(=O)oc2c1 | 109% (inactive)
91 | Cc1c(C(=O)NCC(c2ccccc2)c2c[nH]c3ccccc23)oc2ccc(Cl)cc12 (centres undefined) | 105% (inactive)
92 | O=C1NC(=O)/C(=C/c2ccc(-c3ccc([N+](=O)[O-])cc3Br)o2)S1 | 62.8% (active)
93 | O=C1N/C(=C/c2ccc(-c3ccc([N+](=O)[O-])cc3Br)o2)C(=O)N1Cc1ccc(Cl)cc1 | 146% (inactive)
94 | N=C1S/C(=C\c2ccc(-c3ccccc3[N+](=O)[O-])o2)C(=O)N1c1ccc2c(c1)OCO2 | 114% (inactive)
